These are literature values, as cited in US6713048B2, “Δ9 tetrahydrocannabinol (Δ9 THC) solution metered dose inhalers and methods of use” (Virginia Commonwealth University, priority 1998, dated 2004).

Chains of the proteins cited; added tags and fusions are not shown.
UniProt P47746, whole entry: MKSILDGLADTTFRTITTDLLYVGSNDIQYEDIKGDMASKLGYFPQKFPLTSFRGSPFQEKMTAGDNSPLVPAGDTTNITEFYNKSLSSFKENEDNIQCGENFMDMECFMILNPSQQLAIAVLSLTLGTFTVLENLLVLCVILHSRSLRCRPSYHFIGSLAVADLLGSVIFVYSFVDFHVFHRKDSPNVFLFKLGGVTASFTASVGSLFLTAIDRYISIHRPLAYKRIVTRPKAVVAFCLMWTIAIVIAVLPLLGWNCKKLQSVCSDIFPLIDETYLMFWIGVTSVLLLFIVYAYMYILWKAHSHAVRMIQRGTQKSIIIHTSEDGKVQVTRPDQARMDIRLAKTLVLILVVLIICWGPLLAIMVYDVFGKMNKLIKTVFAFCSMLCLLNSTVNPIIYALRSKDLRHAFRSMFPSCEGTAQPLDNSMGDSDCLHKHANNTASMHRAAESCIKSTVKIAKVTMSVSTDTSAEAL

Molecules are shown by their SMILES.

The target in one data set is cannabinoid receptor (Mus musculus, UniProt P47746). The following applies: injection of Δ^9-THC (Compton et al., 1996); cited from earlier work.
Data set [1] concerns the target brain cannabinoid receptor (Mus musculus, UniProt P47746). The note with it: injection of WIN 55,212-2 (Rinaldi-Carmona et al., 1994); cited from earlier work.

In the case of `Cc1c(C(=O)NN2CCCCC2)nn(-c2ccc(Cl)cc2Cl)c1-c1ccc(Cl)cc1` [SR 141716A], the “ED50 in antagonizing antinociceptive effects” value on cannabinoid receptor is given as 0.4 mg/kg; in data set [1] it was 1.6 mg/kg.
